Consider four compounds from ChEMBL document CHEMBL2406907, “Chiral Effect of a Phe Residue in Position 3 of the Dmt(1)-L(or D)-Tic(2) Analogues on Opioid Functional Activities” (2013).

Chains of the proteins cited; added tags and fusions are not shown.
UniProt P97266, whole entry, looked up: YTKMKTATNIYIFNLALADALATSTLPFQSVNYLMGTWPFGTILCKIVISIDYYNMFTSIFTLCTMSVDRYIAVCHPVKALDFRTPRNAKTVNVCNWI
UniProt P32300, whole entry, looked up: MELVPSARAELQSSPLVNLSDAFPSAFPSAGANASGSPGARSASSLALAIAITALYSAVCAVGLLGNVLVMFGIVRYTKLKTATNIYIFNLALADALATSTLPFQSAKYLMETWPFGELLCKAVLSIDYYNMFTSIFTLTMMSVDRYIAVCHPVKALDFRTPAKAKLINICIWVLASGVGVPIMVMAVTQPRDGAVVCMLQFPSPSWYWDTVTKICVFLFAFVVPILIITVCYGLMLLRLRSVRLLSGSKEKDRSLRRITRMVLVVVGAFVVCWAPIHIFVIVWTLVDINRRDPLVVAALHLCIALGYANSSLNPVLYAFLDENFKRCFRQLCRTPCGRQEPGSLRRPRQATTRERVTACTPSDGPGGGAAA

The nature of test [1]: Selectivity ratio of Ki for rat mu opioid receptor to Ki for human delta opioid receptor.
For test [2], the target named is Mu-type opioid receptor (Cavia porcellus) (UniProt P97266). Briefly: Agonist activity at mu opioid receptor in Hartley guinea pig ileum assessed as inhibition of electrically-stimulated muscle contraction at 1 uM relative to control.
Test [3] can be described thus: Selectivity ratio of IC50 for mu opioid receptor in Hartley guinea pig ileum to IC50 for delta opioid receptor in ICR mouse vas deferens.
For test [4], the target named is Delta-type opioid receptor (Mus musculus) (UniProt P32300). The experiment in a line: Antagonist activity at delta opioid receptor in ICR mouse vas deferens.

Consider `Cc1cc(O)cc(C)c1C[C@H](N)C(=O)N1Cc2ccccc2C[C@@H]1C(=O)N[C@H](Cc1ccc(Cl)cc1)C(=O)N1CCC(Cn2cncn2)(C2CCCCC2)CC1`, for which, in test [1], the Ratio Ki worked out at 0.026. Also, the inhibition in test [2] came out at 6%.

Turning to `Cc1cc(O)cc(C)c1C[C@H](N)C(=O)N1Cc2ccccc2C[C@@H]1C(=O)NCC(=O)N[C@@H](Cc1ccc(Cl)cc1)C(=O)O`, the Ratio IC50 in test [3] amounted to 23.

Consider `Cc1cc(O)cc(C)c1C[C@H](N)C(=O)N1Cc2ccccc2C[C@@H]1C(N)=O`, for which the Ratio Ki in test [1] was 0.067.

In turn, `Cc1cc(O)cc(C)c1C[C@H](N)C(=O)N1Cc2ccccc2C[C@H]1C(N)=O` displayed a Ke in test [4] of 42 nM. In addition, in test [1], the Ratio Ki was 230.

As usually defined, the inhibition is the drop in the measured response relative to a control, in per cent.
